This passage reports activity change, negative = inhibition results from PubChem BioAssay AID2517 (National Center for Advancing Translational Sciences (NCATS), 2010).

The chains behind the UniProt entries cited, without tags or fusion partners.
UniProt P27695, whole entry: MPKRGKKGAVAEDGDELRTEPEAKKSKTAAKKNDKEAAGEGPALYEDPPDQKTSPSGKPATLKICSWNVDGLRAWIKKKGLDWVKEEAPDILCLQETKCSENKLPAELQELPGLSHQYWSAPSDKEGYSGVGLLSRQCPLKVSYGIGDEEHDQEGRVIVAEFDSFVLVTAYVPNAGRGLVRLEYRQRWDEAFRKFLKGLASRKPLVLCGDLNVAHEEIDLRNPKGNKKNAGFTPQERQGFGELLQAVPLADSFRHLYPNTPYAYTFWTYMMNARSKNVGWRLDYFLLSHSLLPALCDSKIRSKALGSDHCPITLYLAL

Only a part is listed here, and it is no random draw. Inconclusive results are not listed. Calls of active or inactive are those of the source. Calls follow the shape of the dose curve; as a rule, active = well fitted inhibition curve with a large enough effect; inconclusive = small, poorly fitted or top-dose-only effect; inactive = no such curve, though single readings can be large or run the other way.

The target in this assay is DNA repair nuclease/redox regulator APEX1 (Homo sapiens) (UniProt P27695). Put plainly: qHTS Assay for Inhibitors of the Human Apurinic/apyrimidinic Endonuclease 1 (APE1).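 Also: plate controls were vehicle for no effect and reference inhibitor for full effect; nearly all actives have a fitted effect of over 55% in size.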 The settings on record: recombinant APE1, TAMRA/BHQ-2 abasic DNA cleavage fluorescence; at 65.8 µM (top of the series).
In the case of `Cc1nc2ccc3ccccc3c2s1.O=[N+]([O-])c1cc([N+](=O)[O-])c(O)c([N+](=O)[O-])c1`, the activity change, negative = inhibition is inactive: -2.66%.

For the compound `CC(C)N(CCCl)C(C)C`, the activity change, negative = inhibition is inactive: -1.71%.

Regarding `O=[N+]([O-])c1cc([N+](=O)[O-])c(-n2nnc3ccccc32)c([N+](=O)[O-])c1`, the activity change, negative = inhibition is inactive: 1.09%.

With `CP(=O)(Nc1ccc(SC(F)(F)F)cc1)Oc1ccccc1` (stereo not given), the activity change, negative = inhibition is inactive: 14.1%.

In the case of `CCCOc1ccc(NP(C)(=O)Oc2ccc(Cl)cc2)cc1` (stereo not given), the activity change, negative = inhibition is inactive: -4.48%.

Turning to `OCCN(CCO)CCO`, the activity change, negative = inhibition was inactive: -1.94%.

`COc1ccccc1OP(C)(=O)Nc1c(C)cccc1C` (stereo not given): the activity change, negative = inhibition is inactive: -1.31%.

As for `CN1CCCCC1COC(=O)C1(O)c2ccccc2CCc2ccccc21` (stereo not given), the activity change, negative = inhibition was inactive: 2.17%.

With `O=[N+]([O-])c1cc([N+](=O)[O-])c(Nc2nnnn2CCO)c([N+](=O)[O-])c1`, the activity change, negative = inhibition is inactive: -0.775%.

Regarding `CC1=NCCc2c1[nH]c1ccccc21.O=[N+]([O-])c1cc([N+](=O)[O-])c(O)c([N+](=O)[O-])c1`, the activity change, negative = inhibition is inactive: -1.62%.

As for `Cc1ccc([N+](=O)[O-])cc1[N+](=O)[O-]`, the activity change, negative = inhibition was inactive: 3.73%.

In the case of `O=[N+]([O-])OCC(CO[N+](=O)[O-])(CO[N+](=O)[O-])CO[N+](=O)[O-]`, the activity change, negative = inhibition was inactive: 4.97%.

On to `O=[N+]([O-])c1cccc([N+](=O)[O-])c1`, for which the activity change, negative = inhibition was inactive: -0.967%.

`CP(=O)(Nc1cccc(Br)c1)Oc1ccccc1` (stereo not given): the activity change, negative = inhibition is inactive: 4.8%.

In the case of `Cc1cc(C)cc(OP(C)(=O)Nc2ccccn2)c1` (stereo not given), the activity change, negative = inhibition is inactive: 2.29%.

As for `CCOC(=O)c1ccc(NP(C)(=O)Oc2cc(C)cc(C)c2)cc1` (stereo not given), the activity change, negative = inhibition was inactive: 17.6%.

As for `Cc1cc(C)cc(OP(C)(=O)Nc2ccc(C)cc2C)c1` (stereo not given), the activity change, negative = inhibition is inactive: 5.4%.

Regarding `COc1ccccc1OP(C)(=O)Nc1cccc(Br)c1` (stereo not given), the activity change, negative = inhibition is inactive: -4.13%.

Take `O=[N+]([O-])[O-].[NH4+]`: the activity change, negative = inhibition was inactive: -1.15%.

Take `CCN(CC)CCCOC(=O)C(O)(c1ccccc1)c1ccccc1`: the activity change, negative = inhibition was inactive: 3.46%.

For `Cc1cc(C)cc(OP(C)(N)=O)c1` (stereo not given), the activity change, negative = inhibition was inactive: -2.32%.

As for `COc1ccc(OP(C)(=O)Nc2cccc(F)c2)cc1` (stereo not given), the activity change, negative = inhibition is inactive: -0.139%.

With `COc1ccccc1OP(C)(=O)Nc1cc(Cl)ccc1C` (stereo not given), the activity change, negative = inhibition was inactive: -4.6%.

For `Cc1ccc(NP(C)(=O)Oc2ccccc2)c(C)c1` (stereo not given), the activity change, negative = inhibition is inactive: -10.4%.

Consider `COc1ccccc1OP(C)(=O)Nc1ccc(C)cc1` (stereo not given), for which the activity change, negative = inhibition is inactive: -6.83%.

Turning to `CCOC(=O)c1ccc(NP(C)(=O)Oc2ccccc2)cc1` (stereo not given), the activity change, negative = inhibition was inactive: 6.16%.

For the compound `O=[N+]([O-])c1ccc2c(c1)C=Nc1ccccc1O2`, the activity change, negative = inhibition is inactive: 10.1%.

Turning to `O=C(O)C(O)(c1ccccc1)c1ccccc1`, the activity change, negative = inhibition was inactive: -3.1%.

Regarding `Cc1cccc(C)c1OP(C)(N)=O` (stereo not given), the activity change, negative = inhibition was inactive: 1.06%.

For the compound `CC(C)(C)c1ccc(OP(C)(=O)Nc2ccc(SC(F)(F)F)cc2)cc1` (stereo not given), the activity change, negative = inhibition is inactive: 12.3%.

For the compound `O=[N+]([O-])c1cc([N+](=O)[O-])c(Nc2cccnc2)c([N+](=O)[O-])c1`, the activity change, negative = inhibition was inactive: 23.4%.

For the compound `CP(=O)(Nc1ccccc1Br)Oc1ccccc1` (stereo not given), the activity change, negative = inhibition was inactive: -0.0765%.

For `COc1ccccc1OP(C)(=O)Nc1ccccc1` (stereo not given), the activity change, negative = inhibition was inactive: -0.599%.

On to `CP(=S)(Nn1cnnc1)Oc1ccccc1` (stereo not given), for which the activity change, negative = inhibition is inactive: 4.8%.

On to `CP(=O)(Nc1ccccn1)Oc1ccc(Cl)cc1` (stereo not given), for which the activity change, negative = inhibition was inactive: 5.63%.

Turning to `CCOC(=O)c1ccc(NP(C)(=O)Oc2ccc(OC)cc2)cc1` (stereo not given), the activity change, negative = inhibition was inactive: 0.929%.

Consider `CCOP(C)(=S)SCC(=O)NC(C)C(=O)O` (stereo not given), for which the activity change, negative = inhibition is inactive: 0.149%.

Take `Cc1cc(C)cc(OP(C)(=O)Nc2ccc(SC(F)(F)F)cc2)c1` (stereo not given): the activity change, negative = inhibition was inactive: -3.92%.

Take `CCc1ccc(OP(C)(=O)N2CCN(c3ccc([N+](=O)[O-])cc3)CC2)cc1` (stereo not given): the activity change, negative = inhibition is inactive: 1.33%.

Turning to `CP(=O)(NC(=O)Nc1ccccc1)Oc1ccccc1` (stereo not given), the activity change, negative = inhibition is inactive: 31.4%.

On to `CP(=O)(Oc1ccccc1)OC(c1ccccc1)C(F)(F)F` (stereo not given), for which the activity change, negative = inhibition was inactive: -0.896%.

Take `Cc1cccc(C)c1OP(C)(=O)Nc1ccc(SC(F)(F)F)cc1` (stereo not given): the activity change, negative = inhibition was inactive: -7.2%.

Regarding `CP(=O)(Nc1ccc(SC(F)(F)F)cc1)Oc1ccc(Cl)cc1` (stereo not given), the activity change, negative = inhibition was inactive: -3.25%.

For `CN(C)C(=O)c1c([N+](=O)[O-])cc([N+](=O)[O-])cc1[N+](=O)[O-]`, the activity change, negative = inhibition is inactive: 12.7%.

For `CC(C)(C)c1ccc(OP(C)(=O)O)cc1`, the activity change, negative = inhibition was inactive: -4.04%.

In the case of `COc1ccccc1OP(C)(=O)Nc1ccccc1Br` (stereo not given), the activity change, negative = inhibition is inactive: -12%.

Take `CP(=O)(Nc1ccc(Cl)cc1)Oc1ccc(F)cc1` (stereo not given): the activity change, negative = inhibition is inactive: 3.75%.

With `OCCSCCO`, the activity change, negative = inhibition was inactive: 14.7%.

On to `COc1ccccc1OP(C)(=O)Nc1c(C)n(C)n(-c2ccccc2)c1=O` (stereo not given), for which the activity change, negative = inhibition is inactive: 2.62%.

With `CCc1ccc(OP(C)(=O)Nc2cccnc2)cc1` (stereo not given), the activity change, negative = inhibition was inactive: 21.7%.

`CP(=O)(Oc1ccccc1)N1CCOC1=O` (stereo not given): the activity change, negative = inhibition is inactive: -2.41%.

For `COc1ccc(OP(C)(=O)Nc2ccc(Br)cc2)cc1` (stereo not given), the activity change, negative = inhibition was inactive: 2.2%.

Regarding `CCN(CC)CC(O)COC(=O)C(O)(c1ccccc1)C1CCCCC1` (stereo not given), the activity change, negative = inhibition is inactive: -2.09%.

As for `CCOC(=O)c1ccc(NP(C)(=O)Oc2ccc(Cl)cc2)cc1` (stereo not given), the activity change, negative = inhibition was inactive: 1.25%.

For `CP(=O)(OC12CC3CC(CC(C3)C1)C2)OC12CC3CC(CC(C3)C1)C2`, the activity change, negative = inhibition is inactive: -1.1%.

For `CP(=O)(OCCOc1ccccc1)OCCOc1ccccc1`, the activity change, negative = inhibition was inactive: -4.82%.

In the case of `CP(=O)(Nc1ccc(Cl)cc1Cl)Oc1ccccc1` (stereo not given), the activity change, negative = inhibition was inactive: -2.38%.

As to `Cc1nc2ccc3ccccc3c2o1.O=[N+]([O-])c1cc([N+](=O)[O-])c(O)c([N+](=O)[O-])c1`, the activity change, negative = inhibition was inactive: -3.06%.

Regarding `COc1ccccc1OP(C)(=O)Nc1ccc(C)c(C)c1` (stereo not given), the activity change, negative = inhibition is inactive: 12.2%.

In the case of `COc1ccc(OP(C)(=O)Nc2ccccc2Br)cc1` (stereo not given), the activity change, negative = inhibition is inactive: -0.488%.

On to `Cc1cc(C)cc(OP(C)(=O)Nc2cccc(C(F)(F)F)c2)c1` (stereo not given), for which the activity change, negative = inhibition was inactive: -4.62%.

Consider `COc1ccccc1OP(C)(=O)Nc1ccc(C)cc1C` (stereo not given), for which the activity change, negative = inhibition was inactive: -1.64%.

Consider `CP(=O)(Nc1ccccn1)Oc1ccccc1` (stereo not given), for which the activity change, negative = inhibition was inactive: -0.131%.

With `CCc1ccc(OP(C)(=O)O)cc1`, the activity change, negative = inhibition is inactive: -16.2%.

Turning to `O=[N+]([O-])c1cc([N+](=O)[O-])c(Nc2ccccn2)c([N+](=O)[O-])c1`, the activity change, negative = inhibition is inactive: -13.8%.
